The record followed here is US9895407B2, “Disinfecting formulations and uses thereof” (Sunny Wipes Pty Ltd, priority 2011, dated 2018).

The subject of this assay is hand microflora. The assay can be described thus: Surgical handrub test, EN 12791:2005. In kind it is in vivo, human. The conditions noted are these: 5 volunteers, two 4.6 ml aliquots, 60 seconds total exposure, left hand.

In the case of `CCCO` [60% propan-1-ol, propan-1-ol], the “reduction of hand microflora, immediately” value is listed as 1.61 Logs.
